Here are results for one compound from PMC7684313, “In vitro and in vivo pharmacological activity of minor cannabinoids isolated from Cannabis sativa” (Scientific Reports, 2020).

Amino acid sequences for entries named in this document (tags omitted).
UniProt P34972, whole entry: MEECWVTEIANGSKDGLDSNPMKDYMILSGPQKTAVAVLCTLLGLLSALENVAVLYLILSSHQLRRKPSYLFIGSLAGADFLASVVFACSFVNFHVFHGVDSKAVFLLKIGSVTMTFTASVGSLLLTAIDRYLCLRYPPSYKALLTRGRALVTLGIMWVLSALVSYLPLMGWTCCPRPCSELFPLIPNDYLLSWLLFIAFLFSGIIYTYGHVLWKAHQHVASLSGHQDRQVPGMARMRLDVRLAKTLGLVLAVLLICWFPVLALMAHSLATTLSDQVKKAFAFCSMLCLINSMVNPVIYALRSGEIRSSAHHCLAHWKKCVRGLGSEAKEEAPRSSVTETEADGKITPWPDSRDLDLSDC

One may read the EC50 as the concentration giving half of the maximal effect.

Assay [1] addresses T1, hCB2R (Homo sapiens, UniProt P34972). Briefly: hCB2R-dependent inhibition of FSK-stimulated cAMP accumulation (HitHunter CHO cells). Format: cell-based. Set-up: expressed in transfected cells; membranes. The note with it: 90 min, 95% CI in brackets. For orientation: Cyclic AMP is a second messenger, typically raised through Gs and lowered through Gi signalling.
The target of assay [2] is T1, hCB2R. The assay is described as follows: hCB2R-dependent recruitment of βarrestin2 (PathHunter CHO cells). Format: cell-based. The arrangement: expressed in transfected cells; membranes. To be noted: 90 min, 95% CI in brackets.

Structures are written as SMILES.

Regarding `C=C(C)[C@@H]1CCC(C)=C[C@H]1c1c(O)cc(CCCCC)cc1O` [CBD, cannabidiol, reference compound], the concentration for a half-maximal effect (EC50) in assay [1] is more than 10 µM; in assay [2], 0.058 µM.
